The source of these data is paper PMC7611940, “A Conformation Selective Mode of Inhibiting SRC Improves Drug Efficacy and Tolerability” (Cancer Research, 2021).

Structures are written as SMILES. Like-named read-outs stand apart in the source and are kept apart here.

Holding throughout (assay): cells
The test system of one assay is BT-474. To be noted: Homo sapiens, BT-474, 120 h.
The next assay relates to JIMT-1. The conditions noted are these: Homo sapiens, JIMT-1, 120 h.
The next assay has as its system HCC-1569. The conditions noted are these: Homo sapiens, HCC1569, 120 h.
A further assay deals with KPL-4. The conditions noted are these: KPL4, 120 h.
The next assay relates to CAMA-1. The conditions noted are these: Homo sapiens, CAMA-1, 120 h.
The next assay relates to HCC-1954. The conditions noted are these: Homo sapiens, HCC1954, 120 h.
In another assay the test system is ZR75.1. To be noted: Homo sapiens, ZR-75-1, 120 h, read-out: Saracatinib GI50 (in uM).
For the next assay, the system named is SKBR-3. The conditions noted are these: Homo sapiens, SK-BR-3, 120 h, read-out: Saracatinib GI50 (in uM).
Another assay relates to BT-549. To be noted: Homo sapiens, BT-549, 120 h, read-out: Saracatinib GI50 (in uM).
A further assay concerns MCF-7. To be noted: Homo sapiens, MCF7, 120 h, read-out: Saracatinib GI50 (in uM).
The subject of a further assay is SUM44PE. The conditions noted are these: 120 h, read-out: Saracatinib GI50 (in uM).
Another assay relates to MDA-MB-157. To be noted: Homo sapiens, MDA-MB-157, 120 h, read-out: Saracatinib GI50 (in uM).
Another assay has as its system MDA-MB-231. The conditions noted are these: Homo sapiens, MDA-MB-231, 120 h, read-out: Saracatinib GI50 (in uM).
Another assay has as its system T-47D. The conditions noted are these: Homo sapiens, T47D, 120 h, read-out: Saracatinib GI50 (in uM).
A further assay relates to MDA-MB-134VI. The conditions noted are these: Homo sapiens, MDA-MB-134-VI, 120 h, read-out: Saracatinib GI50 (in uM).
A further assay relates to MDA-MB-436. The conditions noted are these: Homo sapiens, MDA-MB-436, 120 h, read-out: Saracatinib GI50 (in uM).
Where [1] appears, read: read-out: Imatinib GI50 (in uM).
[2] abbreviates: read-out: Saracatinib GI50 (in uM).

Broadly, the GI50 is the concentration at which growth is held to half of that of the control. Take `Cc1ccc(NC(=O)c2ccc(CN3CCN(C)CC3)cc2)cc1Nc1nccc(-c2cccnc2)n1` [Imatinib]: the GI50 amounted to 8.8 µM in the assay with BT-474 (setting [1]); 8.92 µM in the assay with JIMT-1 (setting [1]); 8.84 µM in the assay with HCC-1569 (setting [1]); 8.52 µM with KPL-4 (setting [1]); 8.64 µM in the assay on CAMA-1 (setting [1]); 4.65 µM in the assay on HCC-1954 (setting [1]).

For the compound `CN1CCN(CCOc2cc(OC3CCOCC3)c3c(Nc4c(Cl)ccc5c4OCO5)ncnc3c2)CC1` [saracatinib], the GI50 amounted to 1.05 µM with BT-474 (setting [2]); 0.248 µM in the assay with ZR75.1; 4.99 µM with SKBR-3; 5.07 µM in the assay with BT-549; 0.398 µM in the assay on MCF-7; 1.33 µM in the assay with JIMT-1 (setting [2]). The GI50 in the assay with SUM44PE turned out to be 26.9 µM; in the assay with HCC-1569 (setting [2]), 2.81 µM; with KPL-4 (setting [2]), 5.79 µM; in the assay with MDA-MB-157, 6.83 µM; with MDA-MB-231, 0.983 µM; in the assay on T-47D it was 3.46 µM. Besides, the GI50 in the assay with CAMA-1 (setting [2]) stood at 10.3 µM; in the assay with MDA-MB-134VI, 24.9 µM; with HCC-1954 (setting [2]) it was 0.568 µM; in the assay on MDA-MB-436, 12.6 µM.
